From ChEMBL document CHEMBL5550150, “Discovery of 9H-pyrimido[4,5-b]indole derivatives as dual RET/TRKA inhibitors” (Bioorg Med Chem, 2024)

Test system: KM12
Assay: Antiproliferative activity against human KM12 cells harbouring TRK assessed as reduction in cell viability
Assay type: functional

SMILES | GC50
Cn1nc(C(C)(C)C)cc1NC(=O)Cc1ccc(Nc2ncnc3[nH]c4ccccc4c23)cc1 | 270 nM
Cn1cc(-c2ccc3c(c2)[nH]c2ncnc(Nc4ccc(CC(=O)Nc5cc(C(C)(C)C)nn5C)cc4)c23)cn1 | 250 nM
Cn1cc(-c2ccc3c(c2)[nH]c2ncnc(Nc4ccc(CC(=O)Nc5cc(C(C)(C)C)on5)cc4)c23)cn1 | 670 nM
